The target in test [1] is serotonin transporter (UniProt P31652). The class given is binding. As to conditions: read-out: IC50 5-HT [3H]Paroxetine; 0.2 nM [3H]paroxetine; mean ± standard error where given.
Test [2] shares this target. As to conditions: read-out: IC50 5-HT [3H]Paroxetine; 0.2 nM [3H]paroxetine; values taken from literature (footnotes d-h); cited from earlier work.

In general, IC50 refers to the concentration that inhibits the measured activity by half.

Like-named read-outs stand apart in the source and are kept apart here.

For `COC(=O)C1C(c2ccccc2)CC2CCC1N2C` (centres unmarked) [2e], on serotonin transporter [1], the IC50 turned out to be 5.7 µM.
Regarding `COC(=O)C1C(c2ccccc2)CC2CCC1N2C` (centres unmarked) [1e], on serotonin transporter [2], the IC50 was 2 µM.

The values above are taken from patent US6358492B1, “Dopamine transporter imaging ligand” (Research Triangle Institute, priority 1997, dated 2002).
